This passage reports activation results from PubChem BioAssay AID504326 (The Scripps Research Institute Molecular Screening Center, 2011).

Protein sequences, listed by entry. Tags and fused reporters are not part of them.
UniProt P35372, whole entry, looked up: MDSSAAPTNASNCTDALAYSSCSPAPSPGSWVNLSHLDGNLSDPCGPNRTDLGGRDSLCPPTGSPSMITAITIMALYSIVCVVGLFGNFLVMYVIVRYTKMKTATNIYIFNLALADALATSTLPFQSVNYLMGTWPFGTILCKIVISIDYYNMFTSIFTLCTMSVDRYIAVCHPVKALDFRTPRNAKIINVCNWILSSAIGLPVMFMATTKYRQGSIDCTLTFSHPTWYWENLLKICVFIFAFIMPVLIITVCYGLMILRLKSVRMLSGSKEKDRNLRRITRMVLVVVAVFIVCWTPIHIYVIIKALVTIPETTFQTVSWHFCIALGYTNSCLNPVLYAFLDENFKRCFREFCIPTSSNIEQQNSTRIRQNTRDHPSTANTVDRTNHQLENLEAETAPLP
UniProt P41143, whole entry, looked up: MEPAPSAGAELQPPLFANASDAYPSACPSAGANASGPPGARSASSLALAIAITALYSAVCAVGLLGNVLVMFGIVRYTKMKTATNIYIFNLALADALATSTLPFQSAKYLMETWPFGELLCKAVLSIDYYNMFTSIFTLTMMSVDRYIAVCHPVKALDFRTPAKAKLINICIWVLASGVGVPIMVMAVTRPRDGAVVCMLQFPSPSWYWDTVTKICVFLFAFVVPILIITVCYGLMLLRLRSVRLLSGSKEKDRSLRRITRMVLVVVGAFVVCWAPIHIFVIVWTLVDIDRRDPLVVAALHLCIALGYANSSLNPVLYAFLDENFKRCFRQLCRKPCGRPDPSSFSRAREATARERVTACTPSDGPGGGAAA

The list shows a part of the results, in another mix than the full data. The source made the active and inactive calls. No stated cut-off is given here; in the data, active means activation above about 18%; inactive means the rest.

In the assay the target is Mu-type opioid receptor (Homo sapiens) + Delta-type opioid receptor (Homo sapiens) (UniProt P35372+P41143). As to the kind of experiment: inducers of mu-delta opioid receptor heterodimers – cell-based, luminescence, primary screen (AID 504326).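 Further: 0% = vehicle-treated cells and 100% = reference agonist.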 The settings on record: cells, OPRM1-OPRD1 heterodimerization, at 9.3 µM, stronger effect = higher value.
Take `N#CCC(=O)N/N=C\c1ccccc1OC/C=C/c1ccccc1`: the activation is inactive: 1.3%.

In the case of `Cc1ccc2c(c1)C1CN(C)CCC1N2CC(=O)N(C)c1ccccc1` (stereo unspecified), the activation was inactive: -0.76%. Then `COCCCNC(=O)Cn1cnc2c(OCc3ccccc3)ncnc21`, with inactive: -2.87%; and `CCOC(=O)Nc1ccc2c(c1)nc1n2CCN(CCOC)C1`, with inactive: -1.94%; and `CSc1nc(N)nc2c1ncn2CC(=O)N[C@H](CO)Cc1c[nH]c2ccccc12`, with inactive: -2.82%. Then `Cc1ccc2c(c1)C1CN(C)CCC1N2C(=O)c1cccnc1Cl` (stereo unspecified), with inactive: -0.46%. Consider `O=P1(N(CCCl)CCCl)OCCCS1` (stereo unspecified), for which the activation is inactive: -1.77%. Then `O=[N+]([O-])c1ccccc1NC1CCN(Cc2ccccc2)CC1`, with inactive: -0.56%.

Turning to `Cc1ccc2c(c1)C1CN(C)CCC1N2C(=O)Nc1ccc(Cl)cc1` (stereo unspecified), the activation was inactive: 3.54%. Then `O=C(Cn1cnc2ccccc21)NCCCN1CCOCC1`, with inactive: -1.31%; and `CC(C)[C@H](NC(=O)N1CCn2c1nc1ccccc12)C(=O)N[C@H](C(=O)O)c1ccccc1`, with inactive: -2.15%; and `Cn1c(=O)c2ncn(CC(=O)NC3CCCCCC3)c2n(C)c1=O`, with inactive: -1.58%.

For the compound `CC(C)[C@H](NC(=O)N1CCn2c1nc1ccccc12)C(=O)NCc1ccc2c(c1)OCO2`, the activation is inactive: -2.2%. Then `Cn1c(=O)n(Cc2ccc(Cl)cc2)c(=O)c2c1nc1n2CCN1Cc1ccco1`, with inactive: 0.94%; and `CN(C)C(=O)Cn1c(SCC(=O)NC2CCCCC2)nc2ccccc21`, with inactive: 0.07%. Then `CC(=O)Nc1ccc2c(c1)nc1n2CCN(C(C)c2ccccc2)C1` (stereo unspecified), with inactive: -3.78%; and `C(Cc1nn[nH]n1)Cc1nn[nH]n1`, with inactive: -3.25%; and `O=C(Nc1ccccc1Cl)N1CCn2c(nc3ccccc32)C1`, with inactive: -1.21%. Turning to `COc1ccc(CCNC(=O)Cn2cnc3c2c(=O)n(C)c(=O)n3C)cc1OC`, the activation was inactive: -1.45%.

As to `Cn1c(=O)[nH]c(=O)c2c1nc(CN(Cc1ccccc1)Cc1ccccc1)n2CCN1CCOCC1`, the activation is inactive: -2.76%. Then `CSCC[C@H](NC(=O)N1CCn2c1nc1ccccc12)C(=O)NCc1ccc(F)cc1`, with inactive: -1.86%; and `N=c1n(CCO)c2ccccc2n1CCN1CCCCC1`, with inactive: -0.65%. Then `Nc1ccc([As](=O)(O)c2ccc([N+](=O)[O-])cc2)cc1`, with inactive: -1.12%; and `COc1ccc(C(=O)N2CCn3c2nc2ccccc23)cc1`, with inactive: -1.56%.

`COc1cc(C(=O)OCCn2c(=O)c3c(ncn3CCN(C)C)n(C)c2=O)cc(OC)c1OC`: the activation is inactive: -0.89%. Then `O=C(Cn1c(CC(=O)N2CCCC2)nc2ccccc21)NCc1ccccc1`, with inactive: 0.7%; and `COCCOC(=O)C1=C(C)N=C2SCCC(=O)N2C1/C=C/c1ccccc1` (stereo unspecified), with inactive: 0.31%. Take `Cc1ccc2c(c1)C1CN(C)CCC1N2C(=O)/C=C/c1ccc2c(c1)OCO2` (stereo unspecified): the activation is inactive: -0.37%. Then `O=C(Nc1cccc(F)c1)N1CCC(n2c(=O)[nH]c3ccccc32)CC1`, with inactive: 0.63%; and `O=C(Cn1cnc2c(OCc3ccccc3)ncnc21)NCc1nc2ccccc2[nH]1`, with inactive: -4.4%; and `O=C(OC1CN2CCC1CC2)c1cccc(Cl)c1` (stereo unspecified), with inactive: -2.19%. Then `COc1ccc(N2C(=O)CC(N3CCC(n4c(=O)[nH]c5ccccc54)CC3)C2=O)cc1` (stereo unspecified), with inactive: -2.29%; and `CC(C)C[C@H](NC(=O)N1CCn2c1nc1ccccc12)C(=O)N[C@@H](Cc1ccccc1)C(=O)O`, with inactive: -0.17%. Then `CCn1c(N)[n+](CC(=O)Nc2ccc(SC(F)F)cc2)c2ccccc21`, with active: 44.1%; and `O=[N+]([O-])c1ncn(CCn2cnc([N+](=O)[O-])n2)n1`, with inactive: -0.03%; and `CC(=O)NC(SC(=S)N(C)C)C(Cl)(Cl)Cl` (stereo unspecified), with inactive: -0.39%. As for `CCOC(=O)C1=C(Cn2cnc3ccccc32)NC(=O)NC1c1cc(C)ccc1C` (stereo unspecified), the activation was inactive: -1.94%. Then `O=[N+]([O-])c1ccc(O)c(/C=N/Nc2ccc([N+](=O)[O-])cc2[N+](=O)[O-])c1`, with inactive: 1.93%; and `O=C(Cn1cnc2c(OCc3ccccc3)ncnc21)NCc1ccc2[nH]ccc2c1`, with inactive: -2.87%. Then `CCn1nccc1C(=O)Nc1nc2ccccc2n1CCN1CCCCC1`, with inactive: -1.44%. Then `N=c1n(CCN2CCOCC2)c2ccccc2n1CC(=O)c1ccc(Cl)c(Cl)c1`, with inactive: 1.76%. Regarding `CS(=O)(=O)Cc1nc2ccccc2n1CC(=O)Nc1cccc(S(=O)(=O)N2CCCC2)c1`, the activation was inactive: -2.15%. As for `CCOc1ccc(NC(=O)N2CCC(n3c(=O)[nH]c4ccccc43)CC2)cc1`, the activation was inactive: 0.45%. Then `O=C(Cn1c(=O)n(CC2CS2)c2ccccc21)N1CCCCC1` (stereo unspecified), with inactive: -2.02%; and `Cc1nc2cc(C(F)(F)F)ccc2n1C1CCN(Cc2nnnn2Cc2cccs2)CC1`, with inactive: -0.22%. Then `COCC(C)NC(=O)Cn1c(SCc2ccccc2)nc2ccccc21` (stereo unspecified), with inactive: -2.32%. In the case of `CC1CCCC(NC(=O)Cn2c(Cl)nc3c2c(=O)n(C)c(=O)n3C)C1C` (stereo unspecified), the activation was inactive: -2.65%.

For the compound `O=[As](O)(c1ccccc1)c1ccc(O)cc1`, the activation is inactive: -2.14%. As for `O=C(Cn1cnc2c(NCc3ccccc3)ncnc21)NCc1ccccc1`, the activation is inactive: -3.69%.

Take `Cc1nc2ccc(S(=O)(=O)NC(C(=O)N3CCn4c3nc3ccccc34)C(C)C)cc2s1` (stereo unspecified): the activation was inactive: -2.06%. Then `CCN(CC)CCn1c(NC(=O)c2ccccc2O)nc2ccccc21`, with inactive: 6.25%.

Turning to `Cn1c(=O)c2c(ncn2CC(=O)Nc2nc(-c3ccc(F)c(F)c3)cs2)n(C)c1=O`, the activation is inactive: -0.93%. `O=P(Nc1nc2ccccc2s1)(c1ccccc1)c1ccccc1`: the activation was inactive: -3.02%.

Turning to `Cn1c(=O)n(CC(=O)Nc2cccnc2)c2ccccc21`, the activation was inactive: -1.08%. Then `N=c1n(CCN2CCCC2)c2ccccc2n1CC(O)c1ccco1` (stereo unspecified), with inactive: -4.96%; and `CC(C)N(C(=O)Cn1c(SCC(=O)NC2CC2)nc2ccccc21)C(C)C`, with inactive: -2.32%.

Consider `Cn1c(=O)c2c(ncn2CC(=O)N2CCOCC2)n(C)c1=O`, for which the activation was inactive: -2.93%. Regarding `C[C@H]1OP(=O)(Oc2ccccc2)[C@H](O)[C@H](O)[C@H]1N=[N+]=[N-]` (stereo partly specified), the activation is inactive: -0.91%. Then `Cc1cc2ncn(C3CC(=O)N(Cc4ccc(N5CCCC5=O)cc4)C3=O)c2cc1C` (stereo unspecified), with inactive: -1.69%; and `COc1ccccc1OCCSc1nc2ccccc2n1CC(N)=O`, with inactive: -3.61%; and `CCN(CC)CCn1c(NS(=O)(=O)c2ccc(Cl)cc2)nc2ccccc21`, with inactive: 1.77%. Then `Cc1ccc(Cn2nnnc2CN2CCC(n3nnc4ccccc43)CC2)cc1`, with inactive: -2.34%. Then `O=c1oc2ccccc2c2c1ncn2CCN1CCOCC1`, with inactive: -1.61%; and `COc1ccc(OC)c(C(=O)CSc2nc3ccccc3n2CC(=O)NC(C)(C)C)c1`, with inactive: -2.31%. Turning to `O=C(Cn1c2[n+](c3ccc(C(F)(F)F)cc31)CCCCC2)Nc1ccccc1`, the activation is inactive: -0.95%. Then `Cc1nc2ccccc2n1CC(=O)NC1CCCC1`, with inactive: -3.58%.

As for `CCOCN(C(=O)Cn1c(CO)nc2ccccc21)c1c(C)cccc1CC`, the activation is inactive: 2.25%. With `CC(O)c1nc2ccccc2n1CC(=O)Nc1ccc2c(c1)OCCO2` (stereo unspecified), the activation is inactive: 0.09%.

As to `CSCC[C@H](NC(=O)N1CCn2c1nc1ccccc12)C(=O)NCC1CCCO1` (stereo partly specified), the activation was inactive: -2.85%. Then `CSc1ccccc1NC(=O)Cn1c(-c2cscn2)nc2ccccc21`, with inactive: -3.44%; and `O=C(Cn1cnc2ccccc21)N/N=C/c1ccccn1`, with inactive: -4.37%; and `COc1ccc(N)c([N+](=O)[O-])c1[N+](=O)[O-]`, with inactive: -1.91%. Then `CC(C)(C)NC(=O)Cn1c(Cl)nc2ccccc21`, with inactive: -2.58%; and `Cc1ccc(/C=N/NC(=O)Cn2cnc3c2c(=O)n(C)c(=O)n3C)s1`, with inactive: 0.43%. Consider `c1ccc2c(c1)nc(NCc1ccc3c(c1)OCO3)n2CCN1CCOCC1`, for which the activation was inactive: -5.47%.

Take `COC(=O)[C@H](CC(C)C)NC(=O)Cn1cnc2c(NCc3ccccc3)ncnc21`: the activation is inactive: -2.51%. Then `O=C(Cn1cnc2ccccc21)Nc1ccc2c(c1)OCCCO2`, with inactive: -0.04%. Then `Cc1nnc(NC(=O)Cn2cnc3c2c(=O)n(C)c(=O)n3C)s1`, with inactive: -1.37%; and `CCN(CC)CCn1c(=N)n(CC(=O)c2ccc(C)cc2)c2ccccc21`, with inactive: 9.89%. Then `O=P(Nc1ccccn1)(c1ccc(Br)cc1)c1ccc(Br)cc1`, with inactive: -2.23%; and `CCC(=O)Nc1ccc(NC(=O)/C=C/c2ccc(Cl)cc2)cc1`, with inactive: -0.1%. Consider `NC(=O)Cn1c2[n+](c3ccccc31)CC(O)CS2` (stereo unspecified), for which the activation is inactive: -3.24%.

For `CC(O)CNc1nc2ccccc2n1CC(=O)NCC(F)(F)F` (stereo unspecified), the activation is inactive: -2.23%.

As to `O=C(CSc1nc2ccccc2n1CC(=O)N1CCCC1)N1CCN(C(=O)c2ccco2)CC1`, the activation is inactive: -0.62%.

Consider `C[C@H](NC(=O)N1CCn2c1nc1ccccc12)C(=O)NCCc1ccccc1`, for which the activation was inactive: -3.49%. For `CCN(CC)CCn1c(NCc2ccccn2)nc2ccccc21`, the activation was inactive: 0.16%. Then `CCN(CC)CCn1c(N)nc2ccccc21`, with inactive: -0.28%. Then `Cc1ccc(C(C(=O)NC2CCCCC2)N(Cc2ccco2)C(=O)Cn2cnc3ccccc32)cc1` (stereo unspecified), with inactive: 2.88%; and `Cn1c(=O)c2c(nc(CN3CCN(C(c4ccccc4)c4ccccc4)CC3)n2CC(N)=O)n(C)c1=O`, with inactive: 0.37%. As to `CCOC(=O)c1cccc(NC(=O)Cn2cnc3c2c(=O)n(C)c(=O)n3C)c1`, the activation is inactive: -1.26%. For `CC(=O)NC(C)c1nc2ccccc2n1CC(=O)NC(C)CCc1ccccc1` (stereo unspecified), the activation was inactive: -0.92%.
